Test results reported in patent publication US20220265700A1, “METHODS TO PREVENT, INHIBIT OR TREAT INTERVERTEBRAL DISC DEGENERATION” (University of Iowa Research Foundation, priority 2021, published 2022).

What was measured:
[1] = tested on: nucleus pulposus cells; assay: Mitochondrial membrane potential, JC-1 assay; format: cell-based, rabbit
[2] = tested on: nucleus pulposus cells; conditions: pre-treated with […] Amo (and 10 mM NAC for the mixture) prior to 50 μM tBHP 1 h
[3] = tested on: nucleus pulposus cells; assay: Mitochondrial ROS production, MitoSOX Red; format: cell-based, rabbit

Compound: CCC1(CCC(C)C)C(=O)NC(=O)NC1=O [amobarbital]
- mitochondrial membrane potential (ratio J-aggregate/monomeric form) vs. tBHP [1]: enhanced the membrane potential
- apoptotic and necrotic cells [2]: approximately 8%
- live cells [2]: 92.2%
- decrease of MitoSOX oxidation compared with tBHP [3]: approximately 50%
